Drawing on BindingDB's records for PubMed 7932177 (Memorial Sloan-Kettering Cancer Center, 1994), this text covers Ki for one compound.

By UniProt entry, the sequences of proteins in these tests, tags left out.
UniProt P35372, whole entry: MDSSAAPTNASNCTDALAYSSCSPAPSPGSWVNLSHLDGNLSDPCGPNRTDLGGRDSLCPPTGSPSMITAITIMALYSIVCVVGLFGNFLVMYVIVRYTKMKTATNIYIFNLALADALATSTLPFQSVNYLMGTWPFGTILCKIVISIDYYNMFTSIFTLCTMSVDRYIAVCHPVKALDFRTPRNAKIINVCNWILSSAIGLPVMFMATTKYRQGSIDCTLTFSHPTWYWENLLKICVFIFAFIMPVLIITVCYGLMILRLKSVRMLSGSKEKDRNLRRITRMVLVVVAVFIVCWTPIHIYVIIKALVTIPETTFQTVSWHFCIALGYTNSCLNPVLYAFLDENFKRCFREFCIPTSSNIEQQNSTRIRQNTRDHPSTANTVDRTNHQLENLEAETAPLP

The target in the test is Mu-type opioid receptor (Homo sapiens, UniProt P35372).

In turn, `CCC12CCN(CC3(O)CC3)C(Cc3ccc(O)cc31)C2(C)C` (stereo unspecified) registered a Ki of 0.81 nM.

What is called Ki is the dissociation constant of the complex between target and ligand, obtained from inhibition or displacement. High values mean a looser hold on the target, low ones a stronger hold on the target.
